{"source": "patent US20260176249A1", "about": "“PROTEIN KINASE INHIBITOR, PREPARATION METHOD THEREFOR, AND APPLICATION THEREOF” (SHANDONG LUYE PHARMACEUTICAL CO., LTD., priority 2021, published 2026)", "key": {"[1]": {"system": "HCT116 cells", "assay": "Inhibitory activity on HCT116 cell proliferation (ATPlite)", "type": "cell-based", "conditions": "Homo sapiens, HCT-116, 72 h", "method": "Cell culture medium: RPMI1640+10% FBS (GBICO)\nCell culture plate: 96-well plate (Shanghai Jingan Biotechnology Co., Ltd.)\nDetection kit: ATPlite 1step Luminescence (PerkinElmer)\nDetection instrument: BioTek multifunctional microplate reader\n2. Test method: HCT116 cells in the logarithmic growth phase were seeded into a white-wall clear-bottom 96-well plate at a density of 720 cells per well, and cultured overnight in a 37° C., 5% CO2 incubator. […] After adding the drug, culturing was continued for 72 h in a 37° C., 5% CO2 incubator.\nGraphPad Prism 7.0 was used to process the data, the cell inhibition rate curve was obtained and IC50 was calculated."}, "[2]": {"system": "HCT116 cells", "assay": "In vivo pharmacodynamic study of compound 18 in HCT116 tumor-bearing mice", "design": "species or system Balb/C Nude mice", "conditions": "7 days", "method": "a. Establishment of tumor-bearing mouse model: HCT116 cells in the logarithmic growth phase were taken and cultured, the cells were collected and counted, and then subcutaneously inoculated into Balb/C Nude mice at 1×10^6/mouse. The tumor volume and body weight of the mice were measured regularly. 7 days after inoculation, mice with tumor volume of 150 mm3 were randomly divided into groups and treated with corresponding drugs.\n3. Data processing: All data were organized in EXCEL, and One-way ANOVA analysis and drawing were performed using GraphPad Prism 8.0 software. Statistical significance was achieved when p<0.05.\n1. Experiment materials: Same as Test example 5.\na. Establishment of tumor-bearing mouse model: Same as Test example 5.\nb. […] The administration was performed once a day by gavage for 7 consecutive days, and the tumor volume and body weight of the mice were measured regularly.\n3. Data processing: Same as Test example 5."}, "[3]": {"assay": "Permeability and efflux transporter substrate evaluation in Caco-2 cells", "type": "in vitro ADME", "design": "dose or concentration left out as unconfirmed", "conditions": "human, Caco-2, pH 7.4", "method": "The cells were cultured in a carbon dioxide incubator for 21-28 days before being used for transport experiments. During this period, the culture medium was changed every four to five days.\nThis project uses Hank's balanced salt buffer (pH 7.40±0.05) containing 10 mM HEPES as the transport buffer. The culture medium was removed from the culture plate and the cells were washed twice with preheated transport buffer (approximately 75 μL and 40 mL of transport buffer for each apical well and basolateral receiver plate respectively). The donor solution and receiver solution were added to the corresponding cell plate wells (75 and 250 μL for each apical and basolateral well respectively), and the bidirectional transport experiment was started (apical to basolateral (A-B) and basolateral to apical (B-A)). The test concentration of the test substance was […], and two replicate wells were made for each dosing concentration. […]\nAll samples were vortexed, and then centrifuged at 3220×g for 20 min at 20° C. A proper volume of supernatant was transferred to a sample assay plate, and the sample was stored at 2-8° C. if it was not analyzed immediately after the plate was sealed, and LC MS/MS method was used for analysis. […]\n[formula] • RFUApical and RFUBasolateral are the relative fluorescence intensity of lucifer yellow at the apical and basolateral sides respectively. […]"}, "[4]": {"conditions": "read-out: half inhibitory concentration"}}, "note": "Where two headings read alike, the source gives them in different places.", "data": [{"molecule": "CN1CCN(c2ccc(OC(F)(F)F)c(Nc3ncc4ccc5c(C(N)=O)nn(CCO)c5c4n3)c2)CC1", "note": "[Compound 1]", "values": [{"measurement": "IC50", "setting": "[1]", "result": 51, "unit": "nM"}, {"measurement": "IC50", "setting": "[1]; [4]", "result": 51, "unit": "nM"}]}, {"molecule": "CN1CCN(c2ccc(OC(F)(F)F)c(Nc3ncc4ccc5c(C(N)=O)nn(CCF)c5c4n3)c2)CC1", "note": "[Compound 18]", "values": [{"measurement": "required dose relative to control drug onvansertib to achieve the same efficacy", "setting": "[2]", "result": "approximately ⅙"}, {"measurement": "efflux ratio at 120 min", "setting": "[3]", "result": 1.65}, {"measurement": "IC50", "setting": "[1]", "result": 5, "unit": "nM"}, {"measurement": "IC50", "setting": "[1]; [4]", "result": 5, "unit": "nM"}]}]}
